Test results as given in PubChem BioAssay AID720647 (Broad Institute, 2013).
Only a part is listed here, and it is no random draw. Activity calls are given as the source filed them.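 The calls were made as follows: active = drop in luminescence signal, shown as inhibition above about 50% in the replicate tests (limit read from the data, passing the limit was not always enough); inconclusive = probably only some replicates passing the limit; inactive = the rest.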

What follows are compounds tested on Drosophila bursicon receptor LGR2 (rickets) (assay: inhibitors of bursicon-induced LGR2 CRE-luciferase signal, primary screen, cell-based, HEK293, CRE-luciferase reporter, bursicon stimulation (AID 720647;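 also: agonist challenge used bursicon conditioned medium at about half maximal strength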)). Details: bursicon-stimulated, 4 h, at 9.99 µM, active compounds read high.

SMILES	inhibition
CCC(=O)N(c1ccccc1)C1(COC)CCN(CCc2cccs2)CC1	inactive: 5.37%
CCC(=O)N(c1ccccc1)C1(COC)CCN(CCn2nnn(CC)c2=O)CC1	inactive: -12.9%
